The assay concerns the target Nav1.5 channel (Homo sapiens, UniProt Q14524). As to the kind of experiment: PatchXpress Nav1.5 channel assay in CHL-Nav1.5 cells. It counts as cell-based.

The chains behind the UniProt entries cited, without tags or fusion partners.
UniProt Q14524, whole entry: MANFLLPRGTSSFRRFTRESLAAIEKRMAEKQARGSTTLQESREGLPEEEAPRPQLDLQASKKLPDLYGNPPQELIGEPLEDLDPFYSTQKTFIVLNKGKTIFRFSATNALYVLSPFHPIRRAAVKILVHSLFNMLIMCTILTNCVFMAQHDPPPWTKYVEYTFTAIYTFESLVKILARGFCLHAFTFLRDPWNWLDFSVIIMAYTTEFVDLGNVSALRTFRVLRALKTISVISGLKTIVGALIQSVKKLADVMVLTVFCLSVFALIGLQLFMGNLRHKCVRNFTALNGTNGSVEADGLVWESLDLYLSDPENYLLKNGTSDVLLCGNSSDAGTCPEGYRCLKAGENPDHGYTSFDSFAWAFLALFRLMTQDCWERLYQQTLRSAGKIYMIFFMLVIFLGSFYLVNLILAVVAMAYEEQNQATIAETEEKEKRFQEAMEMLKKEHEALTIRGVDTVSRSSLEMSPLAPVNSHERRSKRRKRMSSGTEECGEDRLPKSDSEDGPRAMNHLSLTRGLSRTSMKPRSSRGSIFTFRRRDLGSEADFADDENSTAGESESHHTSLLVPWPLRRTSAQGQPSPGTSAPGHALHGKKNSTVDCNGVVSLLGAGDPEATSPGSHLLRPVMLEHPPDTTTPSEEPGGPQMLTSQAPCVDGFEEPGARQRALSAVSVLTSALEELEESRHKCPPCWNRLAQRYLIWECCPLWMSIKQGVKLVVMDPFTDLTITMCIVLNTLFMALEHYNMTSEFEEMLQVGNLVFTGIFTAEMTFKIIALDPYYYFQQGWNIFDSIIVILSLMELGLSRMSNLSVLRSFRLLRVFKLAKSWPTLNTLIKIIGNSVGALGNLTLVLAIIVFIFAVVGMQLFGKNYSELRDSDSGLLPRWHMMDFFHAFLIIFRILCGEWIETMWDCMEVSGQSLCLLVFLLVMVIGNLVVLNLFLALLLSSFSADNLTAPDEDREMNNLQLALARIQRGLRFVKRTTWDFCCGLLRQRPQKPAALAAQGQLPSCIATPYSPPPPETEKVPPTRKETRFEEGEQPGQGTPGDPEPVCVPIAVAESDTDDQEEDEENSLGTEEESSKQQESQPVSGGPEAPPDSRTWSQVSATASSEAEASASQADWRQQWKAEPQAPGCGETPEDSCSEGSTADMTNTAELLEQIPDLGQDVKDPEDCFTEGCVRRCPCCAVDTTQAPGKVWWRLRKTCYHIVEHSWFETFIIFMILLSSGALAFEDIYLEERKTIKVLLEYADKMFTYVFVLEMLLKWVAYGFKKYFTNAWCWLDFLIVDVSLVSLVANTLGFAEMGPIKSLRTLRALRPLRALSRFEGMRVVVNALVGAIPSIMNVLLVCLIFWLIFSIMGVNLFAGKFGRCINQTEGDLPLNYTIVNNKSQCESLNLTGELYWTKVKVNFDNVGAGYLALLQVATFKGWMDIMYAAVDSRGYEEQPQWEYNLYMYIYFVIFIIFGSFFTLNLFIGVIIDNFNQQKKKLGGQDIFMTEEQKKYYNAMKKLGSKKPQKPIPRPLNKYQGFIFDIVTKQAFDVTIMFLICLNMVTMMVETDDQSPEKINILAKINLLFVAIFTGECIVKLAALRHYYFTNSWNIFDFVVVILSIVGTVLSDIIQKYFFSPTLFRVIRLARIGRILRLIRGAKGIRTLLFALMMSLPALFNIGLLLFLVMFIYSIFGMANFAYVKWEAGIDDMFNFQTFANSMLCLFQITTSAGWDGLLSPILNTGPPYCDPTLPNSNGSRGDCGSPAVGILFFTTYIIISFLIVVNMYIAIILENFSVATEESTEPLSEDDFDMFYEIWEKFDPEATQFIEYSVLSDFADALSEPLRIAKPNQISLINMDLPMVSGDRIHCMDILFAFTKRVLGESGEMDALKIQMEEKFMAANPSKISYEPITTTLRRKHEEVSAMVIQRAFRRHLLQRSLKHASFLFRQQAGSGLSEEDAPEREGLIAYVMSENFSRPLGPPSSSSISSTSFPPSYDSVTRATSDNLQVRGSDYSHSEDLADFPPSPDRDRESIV

The term IC50 denotes the concentration needed to halve the response being measured. In turn, `CCN(CC)CCNC(=O)c1c(C)[nH]c(/C=C2\C(=O)Nc3ccc(F)cc32)c1C` [sunitinib, Sunitinib] registered a concentration for half-maximal inhibition (IC50) of 7 µM.
